Among the data in ChEMBL document CHEMBL4251654, “Structure-based design of human immuno- and constitutive proteasomes inhibitors” (Eur J Med Chem, 2018) are fold change (FC) values, retold here.

Protein sequences, listed by entry. Tags and fused reporters are not part of them. Lines headed by an entry give the natural chain unless they say otherwise; changes in a name come on top.
UniProt P49721: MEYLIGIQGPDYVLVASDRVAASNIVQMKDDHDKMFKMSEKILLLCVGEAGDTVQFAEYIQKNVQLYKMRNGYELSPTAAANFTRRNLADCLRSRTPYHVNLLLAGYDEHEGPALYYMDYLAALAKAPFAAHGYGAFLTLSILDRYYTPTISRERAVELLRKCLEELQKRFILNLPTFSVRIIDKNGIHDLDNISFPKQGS

This test addresses Proteasome Macropain subunit (Homo sapiens) (UniProt P49721). The test can be described thus: Activation of human 20S constitutive proteasome beta-2 at 50 uM using BocLRR-AMC as substrate incubated for 15 mins measured for 45 mins by fluorescence assay relative to control.

`CC(C)(C)OC(=O)N[C@@H](Cc1ccc(OCc2ccccc2)cc1)C(=O)N[C@@H](CC(N)=O)C(=O)N[C@@H](C[C@]1(O)C(=O)Nc2ccccc21)C(=O)NCc1ccccc1`: the fold change (FC) worked out at 1.4.
